Biological target: 3',5'-cyclic-AMP phosphodiesterase 4D (Homo sapiens, UniProt Q08499)
Test: biochemical
Assay type: cell-based, Sf9

Chains of the proteins cited; added tags and fusions are not shown. Lines headed by an entry give the natural chain unless they say otherwise; changes in a name come on top.
UniProt Q08499: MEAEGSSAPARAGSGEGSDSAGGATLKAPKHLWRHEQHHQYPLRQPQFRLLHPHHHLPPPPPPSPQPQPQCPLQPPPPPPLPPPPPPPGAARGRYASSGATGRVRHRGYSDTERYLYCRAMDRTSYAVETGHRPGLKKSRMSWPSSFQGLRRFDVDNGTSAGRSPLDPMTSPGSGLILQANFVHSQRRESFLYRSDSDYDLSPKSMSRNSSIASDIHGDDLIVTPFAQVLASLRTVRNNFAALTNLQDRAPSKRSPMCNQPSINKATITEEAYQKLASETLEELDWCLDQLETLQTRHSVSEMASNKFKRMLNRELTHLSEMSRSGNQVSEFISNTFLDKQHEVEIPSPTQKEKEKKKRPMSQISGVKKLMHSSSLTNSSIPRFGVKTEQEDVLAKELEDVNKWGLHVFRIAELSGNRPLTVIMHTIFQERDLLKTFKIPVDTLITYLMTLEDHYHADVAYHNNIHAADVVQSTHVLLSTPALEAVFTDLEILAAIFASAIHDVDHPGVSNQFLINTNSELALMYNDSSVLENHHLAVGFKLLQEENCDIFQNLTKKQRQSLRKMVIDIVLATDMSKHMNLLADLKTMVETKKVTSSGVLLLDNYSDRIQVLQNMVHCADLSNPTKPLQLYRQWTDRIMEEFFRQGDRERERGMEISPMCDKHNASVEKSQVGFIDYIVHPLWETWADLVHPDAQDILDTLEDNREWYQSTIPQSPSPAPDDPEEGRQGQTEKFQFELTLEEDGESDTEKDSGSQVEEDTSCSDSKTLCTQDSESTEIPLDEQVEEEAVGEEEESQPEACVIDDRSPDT

Row | IC50 [µM] | Compound
1 | 6.3 | COc1c(F)cc(-n2c(C(=O)N3CC(F)C3)cc3cccnc32)cc1F
2 | 0.45 | O=C(c1nc2cccnc2n1-c1ccc(Cl)c(Cl)c1)N1CCC1
3 | 2 | O=C(c1nc2ccccc2n1-c1ccc(Cl)c(Cl)c1)N1CC(F)C1
4 | 1.9 | O=C(c1cc2cccnc2n1-c1ccnc(F)c1)N1CC(F)C1
5 | 0.88 | O=C(c1nc2cccnc2n1-c1ccc(Cl)c(Cl)c1)N1CC(F)(F)C1

Reference: ChEMBL document CHEMBL4725427, “Synthesis and SAR Studies of 1H-Pyrrolo[2,3-b]pyridine-2-carboxamides as Phosphodiesterase 4B (PDE4B) Inhibitors” (ACS Med Chem Lett, 2020)
